Measurements from ChEMBL document CHEMBL2040829, “Highly regioselective synthesis of N-3 organophosphorous derivatives of 3,4-dihydropyrimidin-2(1H)-ones and their calcium channel binding studies” (Eur J Med Chem, 2012).

organism: Sus scrofa; experiment: Inhibition of calcium channel in pig carotid artery assessed as relaxation of KCl-induced vascular smooth muscle contraction at 0.001 to 10 uM

Structure (SMILES) | inhibition
CCOC(=O)C1=C(C)NC(=O)N(P(=O)(NCc2ccccc2)NCc2ccccc2)C1c1ccccc1 (stereo not drawn) | 0%
CCOC(=O)C1=C(C)NC(=O)N(P(N)(N)=O)C1 | 0%
CCOC(=O)C1=C(C)NC(=O)N(P2(=O)NCCCO2)C1c1ccccc1 (stereo not drawn) | 0%
CCOC(=O)C1=C(C)NC(=O)N(P(N)(N)=O)C1c1ccccc1 (stereo not drawn) | 0%
COC(=O)C1=C(C)NC(=O)N(P(N)(N)=O)C1c1ccccc1 (stereo not drawn) | 0%
CCOC(=O)C1=C(C)NC(=O)N(P(N)(N)=O)C1c1ccc(OC)cc1 (stereo not drawn) | 0%
CCOC(=O)C1=C(C)NC(=O)N(P(=O)(OCC)OCC)C1c1ccccc1 (stereo not drawn) | 0%
CCCCNP(=O)(NCCCC)N1C(=O)NC(C)=C(C(=O)OCC)C1c1ccccc1 (stereo not drawn) | 0%
COC(=O)C1=C(C)NC(=O)N(P(N)(N)=O)C1C (stereo not drawn) | 0%
CC1=C(C(=O)OC(C)C)C(c2cccc([N+](=O)[O-])c2)N(P(N)(N)=O)C(=O)N1 (stereo not drawn) | 0%
CCOC(=O)C1=C(C)NC(=O)N(P2(=O)NCCCCN2)C1c1ccccc1 (stereo not drawn) | 0%
CCOC(=O)C1=C(C)NC(=O)N(P2(=O)NCCCN2)C1C (stereo not drawn) | 0%
CCOC(=O)C1=C(C)NC(=O)N(P(N)(N)=O)C1C (stereo not drawn) | 0%
